Experimental data taken from patent US8927063B2, “Compositions for the treatment of timber and other wood substrates” (TimTechChem International Limited, priority 2008, dated 2015).

Experiment: Example 2: solvent evaporation rate from treated wood pieces (daily re-weighing)
Details: 17-22 °C, no external airflow

O [Water, water, reference compound]
% Solvent Remaining in Wood (After 24 h): 22.4%
% Solvent Remaining in Wood (After 48 h): 14.3%
% Solvent Remaining in Wood (After 72 h): 12.2%
